Results from patent US8927500B2, “Peptidomimetic macrocycles” (Aileron Therapeutics, Inc., priority 2012, dated 2015).
Like-named read-outs stand apart in the source and are kept apart here.

Chains of the proteins cited; added tags and fusions are not shown. Residues count along the entry.
UniProt Q00987, 1-125: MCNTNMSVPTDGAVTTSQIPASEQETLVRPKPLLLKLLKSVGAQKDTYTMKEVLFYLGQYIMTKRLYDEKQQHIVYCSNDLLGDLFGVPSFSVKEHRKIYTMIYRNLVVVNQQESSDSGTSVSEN

Columns and labels:
MDMX = target: T1, MDMX (Homo sapiens, UniProt O15151); assay: Competitive fluorescence polarization assay for MDMX; assay type: binding
T1 sequence (O15151 1-125): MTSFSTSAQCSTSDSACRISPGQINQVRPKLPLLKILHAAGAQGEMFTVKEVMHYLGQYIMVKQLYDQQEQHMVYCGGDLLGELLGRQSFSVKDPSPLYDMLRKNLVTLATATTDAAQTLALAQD

MDM2 = MDM2 (Homo sapiens, UniProt Q00987); assay: Competitive fluorescence polarization assay for MDM2; assay type: binding; settings: competitive FP assay
RKO cells = assay: Cell viability assay (MTT), RKO; settings: read-out: RKO EC50 (72 h)
p21 = assay: P21 ELISA assay in SJSA1 cells; assay type: cell-based, Human; settings: for p21 0.3 uM: 0.3 uM peptide; for p21 1 uM: 1 uM peptide; for p21 3 uM: 3 uM peptide; for p21 10 uM: 10 uM peptide; for p21 30 uM: 30 uM peptide
[1] = competitive FP assay, read-out: IC50 (MDMX)
[2] = competitive FP assay, read-out: Ki (MDMX)

## CC(=O)N[C@@H](CC(C)C)C(=O)N[C@H](C(=O)N[C@@H](Cc1ccccc1)C(=O)N[C@]1(C)CCCCCCC=CCCC[C@@](C)(C(=O)N[C@@H](C)C(=O)N[C@@H](C)C(=O)NC(C)(C)C(=O)N[C@H](C(N)=O)C(C)C)NC(=O)[C@H](CC(C)C)NC(=O)[C@H](CCC(N)=O)NC(=O)[C@H](C)NC(=O)[C@H](Cc2c[nH]c3ccccc23)NC(=O)[C@H](Cc2ccc(O)cc2)NC(=O)[C@H](C)NC1=O)[C@@H](C)O (single isomer, unassigned) [compound 23]
MDMX; [1]
  IC50: 0.1 to 1 µM
MDMX; [2]
  Ki: 0.01 to 0.1 µM

## CC(=O)N[C@@H](CC(C)C)C(=O)N[C@H](C(=O)N[C@@H](Cc1ccccc1)C(=O)N[C@]1(C)CCCCCCC=CCCC[C@@](C)(C(=O)N[C@@H](C)C(=O)N[C@@H](C)C(=O)NC(C)(C)C(=O)N[C@H](C(N)=O)C(C)C)NC(=O)[C@H](CC(C)C)NC(=O)[C@H](CCC(N)=O)NC(=O)[C@H](C)NC(=O)[C@H](Cc2c[nH]c3ccccc23)NC(=O)[C@H](Cc2ccc(O)cc2)NC(=O)[C@H](C)NC1=O)[C@@H](C)O (single isomer, unassigned) [compound 24]
MDMX; [1]
  IC50: 0.1 to 1 µM
MDMX; [2]
  Ki: 0.01 to 0.1 µM

## CCCC[C@H](NC(=O)[C@H](CCC(N)=O)NC(=O)[C@H](Cc1c[nH]cn1)NC(=O)[C@]1(C)CCCC=CCCCCCC[C@@](C)(NC(=O)[C@H](Cc2ccccc2)NC(=O)[C@@H](NC(=O)[C@H](CC(C)C)NC(C)=O)[C@@H](C)O)C(=O)N[C@@H](C)C(=O)N[C@@H](Cc2ccc(O)cc2)C(=O)N[C@@H](Cc2c[nH]c3ccccc23)C(=O)N[C@@H](C)C(=O)N[C@@H](CCC(N)=O)C(=O)N[C@@H](CC(C)C)C(=O)N1)C(=O)N[C@@H](C(N)=O)C(C)C (single isomer, unassigned) [compound 45]
MDMX; [1]
  IC50: 0.01 to 0.1 µM
MDMX; [2]
  Ki: < 0.01 µM
MDM2
  IC50: 0.01 to 0.1 µM
  Ki: < 0.01 µM

## CC(=O)N[C@@H](CC(C)C)C(=O)N[C@H](C(=O)N[C@@H](Cc1ccccc1)C(=O)N[C@]1(C)CCCCCCC=CCCC[C@@](C)(C(=O)N[C@@H](C)C(=O)N[C@@H](C)C(=O)N[C@@H](C)C(=O)N[C@@H](C)C(=O)N[C@H](C)C(N)=O)NC(=O)[C@H](CCC(C)C)NC(=O)[C@H](CCC(N)=O)NC(=O)[C@H](C)NC(=O)[C@H](Cc2c[nH]c3ccccc23)NC(=O)[C@H](Cc2ccc(O)cc2)NC(=O)[C@H](C)NC1=O)[C@@H](C)O (single isomer, unassigned) [compound 313]
MDM2
  IC50: < 0.01 µM
  Ki: < 0.01 µM

## CC(=O)N[C@@H](CC(C)C)C(=O)N[C@H](C(=O)N[C@@H](Cc1ccccc1)C(=O)N[C@]1(C)CCCCCCC=CCCC[C@@](C)(C(=O)N[C@@H](C)C(=O)N[C@@H](C)C(=O)N[C@@H](C)C(=O)N[C@@H](C)C(=O)N[C@H](C)C(N)=O)NC(=O)[C@H](CCC(C)C)NC(=O)[C@H](CCC(N)=O)NC(=O)[C@H](C)NC(=O)[C@H](Cc2c[nH]c3ccccc23)NC(=O)[C@H](Cc2ccc(O)cc2)NC(=O)[C@H](C)NC1=O)[C@@H](C)O (single isomer, unassigned) [compound 314]
MDM2
  IC50: < 0.01 µM
  Ki: < 0.01 µM

## CC(=O)N[C@@H](CC(C)C)C(=O)N[C@H](C(=O)N[C@@H](Cc1ccccc1)C(=O)N[C@]1(C)CCCCCCC=CCCC[C@@](C)(C(=O)N[C@@H](C)C(=O)N[C@@H](C)C(=O)N[C@@H](C)C(=O)N[C@@H](C)C(=O)N[C@@H](C)C(=O)N[C@@H](C)C(=O)N[C@H](C)C(N)=O)NC(=O)[C@H](CC(C)C)NC(=O)[C@H](CCC(N)=O)NC(=O)[C@H](C)NC(=O)[C@H](Cc2c[nH]c3ccccc23)NC(=O)[C@H](Cc2ccc(O)cc2)NC(=O)[C@H](C)NC1=O)[C@@H](C)O (single isomer, unassigned) [compound 316]
RKO cells
  EC50: < 5 µM
MDMX; IC50 (MDMX), competitive FP assay
  IC50: 0.1 to 1 µM
MDMX; Ki (MDMX), competitive FP assay
  Ki: 0.01 to 0.1 µM
p21
  p21 0.3 uM: 1319
  p21 1 uM: 1718
  p21 3 uM: 2848
  p21 10 uM: 2918
  p21 30 uM: 2540

## CC(=O)N[C@@H](CC(C)C)C(=O)N[C@H](C(=O)N[C@@H](Cc1ccccc1)C(=O)N[C@]1(C)CCCCCCC=CCCC[C@@](C)(C(=O)N[C@@H](C)C(=O)N[C@@H](C)C(=O)N[C@@H](C)C(=O)N[C@@H](C)C(=O)N[C@@H](C)C(=O)N[C@@H](C)C(=O)N[C@H](C)C(N)=O)NC(=O)[C@H](CC(C)C)NC(=O)[C@H](CCC(N)=O)NC(=O)[C@H](C)NC(=O)[C@H](Cc2c[nH]c3ccccc23)NC(=O)[C@H](Cc2ccc(O)cc2)NC(=O)[C@H](C)NC1=O)[C@@H](C)O (single isomer, unassigned) [compound 317]
MDMX; read-out: IC50 (MDMX), competitive FP assay
  IC50: 0.1 to 1 µM
MDMX; read-out: Ki (MDMX), competitive FP assay
  Ki: 0.01 to 0.1 µM
p21
  p21 0.3 uM: 551
  p21 1 uM: 624
  p21 3 uM: 776
  p21 10 uM: 1367
  p21 30 uM: 1076

## CC(=O)N[C@@H](CC(C)C)C(=O)N[C@H](C(=O)N[C@@H](Cc1ccccc1)C(=O)N[C@]1(C)CCCCCCC=CCCC[C@@](C)(C(=O)N[C@@H](C)C(=O)N[C@@H](C)C(=O)N[C@@H](C)C(=O)N[C@@H](C)C(=O)NC(C)(C)C(=O)N[C@H](C)C(N)=O)NC(=O)[C@H](CC(C)C)NC(=O)[C@H](CCC(N)=O)NC(=O)[C@H](C)NC(=O)[C@H](Cc2c[nH]c3ccccc23)NC(=O)[C@H](Cc2ccc(O)cc2)NC(=O)[C@H](CCC(=O)O)NC1=O)[C@@H](C)O (single isomer, unassigned) [compound 565]
MDMX; [2]
  Ki: 0.01 to 0.1 µM

## CC(=O)N[C@@H](CC(C)C)C(=O)N[C@H](C(=O)N[C@@H](Cc1ccccc1)C(=O)N[C@]1(C)CCCCCCC=CCCC[C@@](C)(C(=O)N[C@@H](C)C(=O)N[C@@H](C)C(=O)N[C@@H](C)C(=O)N[C@@H](C)C(=O)NC(C)(C)C(=O)N[C@H](C)C(N)=O)NC(=O)[C@H](CC(C)C)NC(=O)[C@H](CCC(N)=O)NC(=O)[C@H](C)NC(=O)[C@H](Cc2c[nH]c3ccccc23)NC(=O)[C@H](Cc2ccc(O)cc2)NC(=O)[C@H](CCC(=O)O)NC1=O)[C@@H](C)O (single isomer, unassigned) [compound 566]
MDMX; [2]
  Ki: 0.01 to 0.1 µM

## CC(=O)N[C@@H](CC(C)C)C(=O)N[C@H](C(=O)N[C@@H](Cc1ccccc1)C(=O)N[C@]1(C)CCCCCCC=CCCC[C@@](C)(C(=O)N[C@@H](CO)C(=O)N[C@@H](C)C(=O)N[C@@H](CC(C)C)C(N)=O)NC(=O)[C@H](CC(C)C)NC(=O)[C@H](CCC(N)=O)NC(=O)[C@H](C)NC(=O)[C@H](Cc2c[nH]c3ccccc23)NC(=O)[C@H](Cc2ccc(O)cc2)NC(=O)[C@H](C)NC1=O)[C@@H](C)O [compound 4]
RKO cells
  EC50: < 5 µM
p21
  p21 3 uM: 317
  p21 10 uM: 3049
  p21 30 uM: 3257

## CC(=O)N[C@@H](CC(C)C)C(=O)N[C@H](C(=O)N[C@@H](Cc1ccccc1)C(=O)N[C@]1(C)CCCCCC/C=C/CCC[C@@](C)(C(=O)N[C@@H](C)C(=O)N[C@@H](C)C(=O)N[C@@H](C)C(=O)N[C@@H](C)C(=O)N[C@@H](C)C(=O)N[C@H](C)C(N)=O)NC(=O)[C@H](CC2CCC2)NC(=O)[C@H](CCC(N)=O)NC(=O)[C@H](CO)NC(=O)[C@H](Cc2c[nH]c3ccccc23)NC(=O)[C@H](Cc2ccc(O)cc2)NC(=O)[C@H](CCC(=O)O)NC1=O)[C@@H](C)O [compound 351]
RKO cells
  EC50: 5 to 15 µM
p21
  p21 0.3 uM: 1350.67
  p21 1 uM: 1710.67
  p21 3 uM: 2030.92
  p21 10 uM: 2190.67
  p21 30 uM: 2668.54
